# Measured values from ChEMBL document CHEMBL1154777, “Univalent and bivalent ligands of butorphan: characteristics of the linking chain determine the affinity and potency of such opioid ligands” (J Med Chem, 2009).
# Organism: Homo sapiens
# Experiment: Selectivity ratio of Ki for human mu opioid receptor to Ki for human kappa opioid receptor
structure (smiles),measurement,value
O=C(O)CCCCCCCCC(=O)Oc1ccc2c(c1)[C@@]13CCCC[C@H]1[C@@H](C2)N(CC1CCC1)CC3,Ratio Ki,2.4
